Tested on: NNet preparations
Assay: Chronic ketamine treatment NNet model of schizophrenia pathophysiology, calcium imaging
Conditions: ketamine 10 μM final concentration every 24 hours; imaging before and 2 days after

CNC1(c2ccccc2Cl)CCCCC1=O (stereo not shown) [ketamine]
neuronal ensembles (clusters of co-active neurons by PCA) identified before treatment: affected
